# Test results from patent publication US4908365A, “Benzhydryloxyethylpiperazine derivatives, processes for their preparation and pharmaceutical compositions in which they are present” (priority 1986, dated 1990).
# How the values were obtained:
# [1] = system: histamine; test: animal or person; type: in vivo, guinea-pigs; conditions: Cavia porcellus, po, 0.5 h, read-out: Histaminic shock ED50
# [2] = system: histamine; test: Bronchospasm by inhalation of a histamine solution; type: in vivo, guinea-pigs; conditions: Cavia porcellus, po, 0.5 h, read-out: Bronchospasm ED50
# Protocol: F-Bronchospasm by inhalation of a histamine solution
# Guinea-pigs are placed in a closed chamber into which histamine is introduced as an aerosol, and only those which show very distinct signs of asphyxia within four minutes are selected.
# The substance to be studied is administered to groups of guinea-pigs thirty minutes before a further period in the chamber in order to check the resistance to histamine. A guinea-pig is considered to be protected if it resists the histamine aerosol for ten minutes without showing signs of asphyxia.
# A 50% effective dose is calculated from the results obtained.
structure (smiles),measurement,setting,value
"CC(C)(C)c1ccc(C(O)CCCN2CCC(C(O)(c3ccccc3)c3ccccc3)CC2)cc1 (centres unmarked) [Terfenadine, reference compound]",ED50,[1],2.58 mg/kg
same,ED50,[2],1.6 mg/kg
